# Results reported in ChEMBL document CHEMBL5532679, “Discovery and Characterization of RGH-122, a Potent, Selective, and Orally Bioavailable V1a Receptor Antagonist” (J Med Chem, 2024).
# Protein sequences, listed by entry. Tags and fused reporters are not part of them.
# UniProt P41595, whole entry: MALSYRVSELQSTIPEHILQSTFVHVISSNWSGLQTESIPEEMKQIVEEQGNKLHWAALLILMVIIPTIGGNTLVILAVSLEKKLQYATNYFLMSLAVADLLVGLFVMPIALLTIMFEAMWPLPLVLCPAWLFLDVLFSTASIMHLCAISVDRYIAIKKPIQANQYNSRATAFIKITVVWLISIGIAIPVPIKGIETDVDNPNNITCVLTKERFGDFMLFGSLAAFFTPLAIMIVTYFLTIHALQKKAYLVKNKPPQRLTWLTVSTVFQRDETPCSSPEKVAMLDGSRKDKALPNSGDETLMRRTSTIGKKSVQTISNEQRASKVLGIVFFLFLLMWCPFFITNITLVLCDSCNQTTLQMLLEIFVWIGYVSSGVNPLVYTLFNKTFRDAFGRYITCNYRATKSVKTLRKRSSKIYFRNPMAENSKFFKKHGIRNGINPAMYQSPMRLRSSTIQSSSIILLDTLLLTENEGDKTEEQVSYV
# Assays:
# Rattus norvegicus = assay: Improvement in social behavior in Wistar rat social withdrawal model assessed as improvement in valproic acid-induced social recognition memory at 15 mg/kg, ip administered from day 52 and measured after 60 days; format: functional, organism-based; conditions: time 8.0 day
# [1] = biological target: 5-hydroxytryptamine receptor 2B (Homo sapiens) (UniProt P41595); assay: Displacement of [3H] LSD from full length recombinant human 5-HT2B receptor by scintillation counting analysis; conditions: filed as agonist
# [2] = Chemical stability of compound in SGF buffer at pH 1.2 measured after 4 hrs; format: ADME, physicochemical; conditions: simulated gi fluid, pH 1.2, 4 h
# [3] = AUC in rat at 300 mg/kg, po; format: ADME, organism-based; conditions: in vivo
# [4] = Chemical stability of compound in SIF buffer at pH 6.8 measured after 4 hrs; format: ADME, physicochemical; conditions: simulated gi fluid, pH 6.8, 4 h
# [5] = Toxicity in dog assessed as NOAEL at 10 mg/kg, po; format: organism-based, Canis lupus familiaris; conditions: in vivo
# [6] = Chemical stability of compound in PBS buffer at pH 7.4 measured for 24 hrs; format: physicochemical; conditions: pH 7.4, 24 h
# [7] = biological target: T1, Vasopressin V1b receptor (Homo sapiens) (UniProt P47901); assay: Binding affinity to human V1b receptor at 10 uM relative to control
# T1 sequence (whole entry): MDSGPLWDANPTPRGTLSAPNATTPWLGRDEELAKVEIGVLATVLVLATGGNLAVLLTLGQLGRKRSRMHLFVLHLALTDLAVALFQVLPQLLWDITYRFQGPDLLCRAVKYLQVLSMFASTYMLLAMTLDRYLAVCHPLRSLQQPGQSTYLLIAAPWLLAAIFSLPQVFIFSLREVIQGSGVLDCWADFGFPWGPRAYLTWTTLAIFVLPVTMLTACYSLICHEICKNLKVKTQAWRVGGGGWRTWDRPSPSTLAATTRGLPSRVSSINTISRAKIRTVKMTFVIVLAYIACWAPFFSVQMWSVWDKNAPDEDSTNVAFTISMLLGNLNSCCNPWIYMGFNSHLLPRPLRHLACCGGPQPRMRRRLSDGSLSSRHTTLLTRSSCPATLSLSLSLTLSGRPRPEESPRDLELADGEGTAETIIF
# [8] = Toxicity in rat assessed as NOAEL at 300 mg/kg, po measured for 4 days; format: organism-based; conditions: in vivo, 96 h, time 4 day
compound,measurement,setting,value
CN1Cc2cc(Cl)ccc2-n2c(nnc2[C@H]2CC[C@H](Oc3ccccn3)CC2)C1 [BALOVAPTAN],Activity,Rattus norvegicus,Active
CC(C)N[C@@H]1Cc2cc(Cl)ccc2-n2c(nnc2[C@H]2CC[C@H](Oc3ccccn3)CC2)C1,Activity,[1],Active
Clc1ccc2c(c1)CC1(Cc3nnc([C@H]4CC[C@H](Oc5ccccn5)CC4)n3-2)OCCO1,Stability,[2],Stable
same,AUC,[3],14971 ng/mL
same,Stability,[4],Stable
same,Activity,[5],Non-Toxic
same,Stability,[6],Stable
same,Activity,[7],16%
same,Activity,[8],Non-Toxic

# Active and inactive are the calls of the source. No cut-off for these calls is given here.
